We go through two compounds from paper PMC9684503 (Communications Biology, 2022).

The chains behind the UniProt entries cited, without tags or fusion partners.
UniProt Q01827, whole entry: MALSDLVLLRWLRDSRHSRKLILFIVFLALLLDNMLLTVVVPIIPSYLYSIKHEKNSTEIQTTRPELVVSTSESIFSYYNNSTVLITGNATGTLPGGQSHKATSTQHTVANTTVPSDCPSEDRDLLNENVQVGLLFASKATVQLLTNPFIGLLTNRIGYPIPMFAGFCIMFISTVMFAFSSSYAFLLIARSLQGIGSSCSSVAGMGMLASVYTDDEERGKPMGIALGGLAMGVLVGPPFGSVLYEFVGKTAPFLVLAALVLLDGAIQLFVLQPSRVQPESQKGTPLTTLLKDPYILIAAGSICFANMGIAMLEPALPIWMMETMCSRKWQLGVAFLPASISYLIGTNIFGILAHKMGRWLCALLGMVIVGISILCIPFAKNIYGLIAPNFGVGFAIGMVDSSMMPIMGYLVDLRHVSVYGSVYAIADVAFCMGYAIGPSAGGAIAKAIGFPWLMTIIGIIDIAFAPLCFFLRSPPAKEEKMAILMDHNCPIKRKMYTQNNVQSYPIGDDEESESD
UniProt Q01827, whole entry P314A: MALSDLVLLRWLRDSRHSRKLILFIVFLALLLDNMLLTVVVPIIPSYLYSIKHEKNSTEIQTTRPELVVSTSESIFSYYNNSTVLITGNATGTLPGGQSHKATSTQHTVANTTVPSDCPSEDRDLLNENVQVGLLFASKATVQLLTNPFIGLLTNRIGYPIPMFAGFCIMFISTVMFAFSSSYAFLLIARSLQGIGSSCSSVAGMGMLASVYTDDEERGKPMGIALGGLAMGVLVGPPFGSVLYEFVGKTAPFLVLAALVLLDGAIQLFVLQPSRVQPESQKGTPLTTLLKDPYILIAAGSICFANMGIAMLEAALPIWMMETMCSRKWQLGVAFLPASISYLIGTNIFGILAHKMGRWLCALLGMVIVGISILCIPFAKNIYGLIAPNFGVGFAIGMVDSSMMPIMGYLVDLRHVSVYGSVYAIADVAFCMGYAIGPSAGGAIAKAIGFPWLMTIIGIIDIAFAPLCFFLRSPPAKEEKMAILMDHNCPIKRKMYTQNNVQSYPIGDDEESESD
UniProt Q01827, whole entry Q143A: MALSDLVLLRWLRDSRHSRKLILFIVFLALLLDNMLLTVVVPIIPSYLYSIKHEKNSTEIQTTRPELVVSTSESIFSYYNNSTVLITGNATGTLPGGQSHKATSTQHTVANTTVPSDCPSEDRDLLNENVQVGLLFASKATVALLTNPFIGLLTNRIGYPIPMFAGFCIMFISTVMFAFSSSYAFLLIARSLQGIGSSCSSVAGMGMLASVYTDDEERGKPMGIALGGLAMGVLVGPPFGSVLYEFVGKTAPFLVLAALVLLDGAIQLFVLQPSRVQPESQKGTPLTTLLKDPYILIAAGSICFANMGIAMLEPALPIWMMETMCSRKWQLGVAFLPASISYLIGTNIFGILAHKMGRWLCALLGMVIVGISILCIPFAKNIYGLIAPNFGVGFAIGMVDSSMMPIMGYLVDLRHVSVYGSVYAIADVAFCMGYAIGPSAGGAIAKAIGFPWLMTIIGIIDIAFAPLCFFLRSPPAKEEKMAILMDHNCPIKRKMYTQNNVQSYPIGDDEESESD

As usually defined, the IC50 is the concentration that inhibits the measured activity by half.

“And” between values parts separate entries of the source, which are not always exact repeats. Equal entries are not always repeated. Where two headings read alike, the source gives them in different places.

For assay [1], the target named is VMAT2 (Rattus norvegicus, UniProt Q01827).
The target of assay [2] is rat VMAT2 (Rattus norvegicus, UniProt Q01827).
Assay [3] has as its target rat VMAT2 P314A (Rattus norvegicus, UniProt Q01827, P314A). Nature of the assay: FFN206 uptake assay, VMAT2 mutant.
Assay [4] addresses rat VMAT2 Q143A (Rattus norvegicus, UniProt Q01827, Q143A). The assay is described as follows: FFN206 uptake assay, VMAT2 mutant.
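Wherever effect on [3H]-DTBZ binding compared with DMSO control (one-way ANOVA, p < 0.001) is given: HEK293 cells transfected with VMAT2, pretreated 30 min with compound, then given 5 nM [3H]-DTBZ for 20 min at 37 °C, bound label read by scintillation counting.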

`COC(=O)[C@H]1[C@H]2C[C@@H]3c4[nH]c5cc(OC)ccc5c4CCN3C[C@H]2C[C@@H](OC(=O)c2cc(OC)c(OC)c(OC)c2)[C@@H]1OC` [Reserpine]: the “effect on [3H]-DTBZ binding compared with DMSO control (one-way ANOVA, p < 0.001)” value in assay [1] (50 μM compound) was “statistically significantly effect”. The activity in assay [1] (hek293 cells, 50 µM) turned out to be 7.02 ± 11.2%. Further, the “VMAT2-specific FFN206 uptake relative to DMSO (=1), replicate samples” value in assay [2] (Fig. 2a source data, 25 μM compound) is 0.1515 and 0.09684 and 0.1376.
`COc1cc2c(cc1OC)C1CC(=O)C(CC(C)C)CN1CC2` (stereo not shown) [Tetrabenazine]: the half-inhibitory concentration (IC50) in assay [3] came to 339 ± 172 nM; in assay [2] (read-out: IC50 (FFN206 substrate uptake), Table 3, VMAT2 Wild-type), 37 ± 28 nM; in assay [2] (read-out: IC50 for VMAT2 inhibition (FFN206 uptake), Table 1, mean ± SD of n ≥ 3 independent experiments) it was 37 ± 28 nM; in assay [4], 366 ± 49 nM.
